Screening results (PubChem BioAssay)
pCIP destab = p/CIP-EGFP fusion destabilizers, primary screen, fluorescence, F442A cells; hit rate 0.01% among 290,000; AID 1984, 2009; 16 h; Q05BA5; decrease of EGFP signal, % at 10 µM;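 active means EGFP signal decrease of at least 30% at 10 µM or well 3 SD below plate mean, unless failing retest; inactive means the rest, including hits failing retest or dose response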
Yeast UUG start-1 = modulators of start codon recognition fidelity in yeast; AID 602363; activity score, % at 18.7 µM; S. cerevisiae UUG-firefly luciferase reporter, luminescence/redox ratio; 0.13% of 350,000 active;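 active = replicate mean at a twofold rise or more, about +100% in these data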;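 note: firefly luciferase made from a UUG start codon reports start codon fidelity; reporter light over untreated wells divided by growth signal over untreated wells; some hits fall short of that in this replicate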
ABCB6 inh 2 = ABCB6 transporter inhibitors, primary screen, K562-ABCB6 cells, flow cytometry, MLPCN library; fluorescence ratio to DMSO, % at 10 µM; hit rate 0.19% among 360,000; K562-ABCB6 porphyrin accumulation, 1 h; stronger effect = lower value; ATP-binding cassette sub-family B member 6 (Homo sapiens), Q9NP58; AID 602162, 2011;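 active means fluorescence ratio to DMSO below 75%, the collection mean minus 3 SD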;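 further: signal is porphyrin accumulated inside mitochondria; lower ratio means ABCB6 inhibition with less porphyrin fluorescence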
PKA-R2B activ = activators of PKA-R2B holoenzyme, primary screen, biochemical, fluorescence polarization, Cy5-IP20, human. cAMP-dependent protein kinase catalytic subunit beta (Homo sapiens) + cAMP-dependent …. PKA-R2B holoenzyme dissociation; R2B truncated from residue 108, S112A mutant; 0% DMSO only, 100% 113 µM cGMP. activation, % at 11.4 µM. hit rate 0.079% among 340,000;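 active means activation above a cutoff set at the mean over all compounds plus 3 SD, cut at about 18% in these data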;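 further: higher means more holoenzyme dissociation and a rise in polarization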
Granule exo inh = LAMP-1 surface exposure blockers, TALL-104 cells – cell-based, flow cytometry, MLPCN library, primary screen. TALL-104 LAMP-1 surface exposure; cells stimulated with thapsigargin and PMA. inhibition, % at 10 µM. hit rate 0.66% among 360,000. AID 651702, 2012;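 active means inhibition above about 55%, limit read from the data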
PKA-R1A act = activators of PKA-R1A holoenzyme, primary screen, biochemical, fluorescence polarization, Cy5-IP20, bovine R1A, mouse PKAc | cAMP-dependent protein kinase type I-alpha regulatory subunit (Bos taurus) + … | PKA-R1A dissociation; scaled: DMSO 0%, 113 µM cGMP 100% | activation, % at 11.4 µM | hit rate 0.083% among 340,000 | AID 504707, 2011;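 active means percent activation above the mean of all tested compounds plus 3 SD, cut at about 19% in these data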;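 further: higher means more PKAc released from R1A so a rise in polarization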
Yeast UUG start-2 = enhancers of UUG start codon usage in yeast, dose response, S. cerevisiae, UUG firefly luciferase, cherry-pick, set 2; shares compounds with Yeast UUG start-1; luminescence, 4 h; 100% means double the DMSO signal; activation, % at 38 µM; 540 tested, under 10 active;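 active means signal increase whose fitted curve reaches an absolute level of 40 at a concentration under 10 µM; inactive means activity opposite to the expected increase, or the rest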
Hits are given with their value; n = inactive; x = not tested or not shown. Sampled rows, rich in hits. Any-hit rate of the full collection: about 0.94%.

SMILES	pCIP destab	Yeast UUG start-1	ABCB6 inh 2	PKA-R2B activ	Granule exo inh	PKA-R1A act	Yeast UUG start-2
C=CCn1c(SCC(=O)c2cc(C)n(C)c2C)nnc1-c1ccncc1	n	n	n	n	n	n	x
Cc1cc(C(=O)CSc2nnc(-c3ccccc3)n2-c2ccccc2)c(C)n1-c1ncn[nH]1	n	653	n	n	n	n	n
COCC(C)n1c(SCC(=O)c2cc(C)n(C)c2C)nc2ccccc2c1=O (stereo not drawn)	n	n	n	n	n	n	n
COCC(C)n1c(C)cc(C(=O)CSc2nc3ccccc3c(=O)[nH]2)c1C (stereo not drawn)	n	n	n	n	n	n	x
C[C@H]1CCCCO[C@H](CN(C)Cc2ccc3c(c2)OCO3)[C@@H](C)CN([C@@H](C)CO)C(=O)c2cc(NC(=O)CCC(F)(F)F)ccc2O1	x	n	x	x	x	x	x
CCCn1c(C)cc(C(=O)CSc2nc3ccccc3c(=O)n2Cc2ccco2)c1C	n	n	n	n	n	n	n
Cc1cc(C(=O)CSc2nnc(-c3cccnc3)n2-c2ccccc2F)c(C)n1C	x	n	n	n	n	n	n
NC(=O)CSc1nc2ccccc2c(=O)n1Cc1ccco1	n	n	n	n	n	n	x
Cn1c(SCC(=O)c2ccccc2)nnc1-c1cccnc1	n	n	n	n	n	n	x
COCCSc1nnc(NC(=O)c2ccc3c(c2)OCO3)s1	n	x	n	n	n	n	x
COCCNc1nnc(SCC(=O)c2ccc3c(c2)OCO3)s1	n	474	n	n	n	n	n
O=S(=O)(Nc1cccc(-c2cn3cccnc3n2)c1)c1ccc(-c2ccccc2)cc1	n	545	n	n	n	n	n
C[C@@H]1CN([C@@H](C)CO)C(=O)c2cc(C#CCN(C)C)cnc2O[C@H]1CN(C)C(=O)CN1CCOCC1	x	n	x	x	x	x	x
COc1cc(OC)c(OC)cc1/C=N/NC(=O)c1ccc2nc[nH]c2c1	n	x	n	n	n	n	x
COc1ccc(/C=N/NC(=O)c2ccc3nc[nH]c3c2)c(OC)c1OC	n	346	n	x	n	x	n
CC(=O)N1CCN(c2ccc([N+](=O)[O-])cc2)CC1	n	x	n	n	n	n	n
CC(=O)OCC(=O)N1CCN(c2ccc([N+](=O)[O-])cc2)CC1	n	x	n	n	n	n	n
CCOCC(=O)N1CCN(c2ccc(F)cc2)CC1	n	n	n	n	n	n	x
CCOCC(=O)N1CCN(c2ccc([N+](=O)[O-])cc2)CC1	n	n	n	n	n	n	n
CO[C@@H]1CN(C)C(=O)c2cc(NC(=O)NC(C)C)ccc2OC[C@H](C)N(C)C[C@@H]1C	x	n	x	x	x	x	x
O=C(Nc1cccc(Cl)c1)N1C[C@@H]2[C@H](c3ccccc31)[C@H](CO)N2C(=O)c1cccnc1	x	n	x	x	x	x	x
O=C(c1ccc(COc2ccc(Cl)cc2)cc1)N1CCCCC1	n	410	n	n	n	n	n
CCCCOc1ccc(C(=O)N2CCCCCC2)cc1	n	n	x	n	n	n	x
CC1CN(Cc2c(O)ccc3c2oc(=O)c2ccccc23)CC(C)O1 (stereo not drawn)	n	156	n	n	n	n	n
CC1CN(Cc2c(O)ccc3c(=O)c(-c4ccccc4)coc23)CC(C)O1 (stereo not drawn)	n	n	n	n	n	n	x
SMILES	pCIP destab	Yeast UUG start-1	ABCB6 inh 2	PKA-R2B activ	Granule exo inh	PKA-R1A act	Yeast UUG start-2
O=C1Nc2ccc([N+](=O)[O-])cc2OC1CCN1CCOCC1 (stereo not drawn)	n	n	n	n	n	n	n
CN1CCN(CCC2Oc3cc([N+](=O)[O-])ccc3NC2=O)CC1 (stereo not drawn)	n	x	n	n	n	n	n
O=C1Nc2ccc([N+](=O)[O-])cc2OC1CCN1CCN(c2ccccc2)CC1 (stereo not drawn)	n	n	n	n	n	n	n
CSc1ccc(S(=O)(=O)NC2CC2)cc1	n	155	n	n	n	n	n
CO[C@H]1CN(C)C(=O)c2ccc(NC(=O)C3CCC3)cc2OC[C@@H](C)N(Cc2ccc(F)cc2)C[C@H]1C	x	n	x	x	x	x	x
CN(C)Cc1cn(CC[C@@H]2CC[C@@H](N)[C@H](CO)O2)nn1	x	n	x	x	x	x	x
CC(C)c1cn(CC[C@H]2CC[C@H](N)[C@@H](CO)O2)nn1	x	134	x	x	x	x	n
Cc1occc1C(=O)Nc1ccccc1NC(=O)c1ccoc1C	x	198	n	n	n	n	n
O=C(N[C@@H]1CC[C@@H](CCNS(=O)(=O)c2ccc(F)cc2)O[C@@H]1CO)C1CCCC1	x	n	x	x	x	x	x
O=C(CNC(=O)c1cccc(F)c1)OCC(=O)N1CCN(C(=O)c2ccco2)CC1	n	213	n	n	n	n	n
O=C(CNC(=O)c1cccc(F)c1)OCC(=O)N1CCCCC1	n	x	n	n	n	n	x
C/C=C/c1cnc2c(c1)C(=O)N([C@H](C)CO)C[C@H](C)[C@H](CN(C)S(=O)(=O)c1ccc(F)cc1)O2	x	130	x	x	x	x	n
C/C=C/c1cnc2c(c1)C(=O)N([C@@H](C)CO)C[C@@H](C)[C@@H](CN(C)S(=O)(=O)c1ccc(F)cc1)O2	x	n	x	x	x	x	x
C[C@@H]1CN([C@@H](C)CO)C(=O)c2cc(C#CC3CCCCC3)cnc2O[C@H]1CN(C)S(=O)(=O)c1ccc(F)cc1	x	119	x	x	x	x	n
C[C@@H]1CN([C@H](C)CO)C(=O)c2cc(C#CC3CCCCC3)cnc2O[C@H]1CN(C)S(=O)(=O)c1ccc(F)cc1	x	n	x	x	x	x	x
COCC#Cc1cnc2c(c1)C(=O)N([C@H](C)CO)C[C@@H](C)[C@@H](CN(C)S(=O)(=O)c1cn(C)cn1)O2	x	n	x	x	x	x	x
COc1ccc(-c2nnc(SCC#N)o2)cc1	n	n	n	n	n	n	x
N#CCSc1nnc(-c2sc3ccccc3c2Cl)o1	n	x	n	n	n	n	n
COC(=O)CSc1nnc(-c2sc3ccccc3c2Cl)o1	n	565	n	n	n	n	n
CCCNC(=O)C[C@@H]1CC[C@H]2[C@@H](COc3ccc(NC(=O)c4cccc(OC)c4)cc3C(=O)N2C)O1	x	n	x	x	x	x	x
COCC(=O)N[C@@H]1CC[C@H](CC(=O)NCc2ccc(Cl)cc2)O[C@H]1CO	x	n	x	x	x	x	x
Cc1ccc(CN(C)C[C@@H]2OCc3cn(nn3)CCCC(=O)N([C@H](C)CO)C[C@@H]2C)cc1	x	n	x	x	x	x	x
